{"sequences": {"note": "The chains behind the UniProt entries cited, without tags or fusion partners. Residues count along the entry.", "UniProt P35968, 20-1356": "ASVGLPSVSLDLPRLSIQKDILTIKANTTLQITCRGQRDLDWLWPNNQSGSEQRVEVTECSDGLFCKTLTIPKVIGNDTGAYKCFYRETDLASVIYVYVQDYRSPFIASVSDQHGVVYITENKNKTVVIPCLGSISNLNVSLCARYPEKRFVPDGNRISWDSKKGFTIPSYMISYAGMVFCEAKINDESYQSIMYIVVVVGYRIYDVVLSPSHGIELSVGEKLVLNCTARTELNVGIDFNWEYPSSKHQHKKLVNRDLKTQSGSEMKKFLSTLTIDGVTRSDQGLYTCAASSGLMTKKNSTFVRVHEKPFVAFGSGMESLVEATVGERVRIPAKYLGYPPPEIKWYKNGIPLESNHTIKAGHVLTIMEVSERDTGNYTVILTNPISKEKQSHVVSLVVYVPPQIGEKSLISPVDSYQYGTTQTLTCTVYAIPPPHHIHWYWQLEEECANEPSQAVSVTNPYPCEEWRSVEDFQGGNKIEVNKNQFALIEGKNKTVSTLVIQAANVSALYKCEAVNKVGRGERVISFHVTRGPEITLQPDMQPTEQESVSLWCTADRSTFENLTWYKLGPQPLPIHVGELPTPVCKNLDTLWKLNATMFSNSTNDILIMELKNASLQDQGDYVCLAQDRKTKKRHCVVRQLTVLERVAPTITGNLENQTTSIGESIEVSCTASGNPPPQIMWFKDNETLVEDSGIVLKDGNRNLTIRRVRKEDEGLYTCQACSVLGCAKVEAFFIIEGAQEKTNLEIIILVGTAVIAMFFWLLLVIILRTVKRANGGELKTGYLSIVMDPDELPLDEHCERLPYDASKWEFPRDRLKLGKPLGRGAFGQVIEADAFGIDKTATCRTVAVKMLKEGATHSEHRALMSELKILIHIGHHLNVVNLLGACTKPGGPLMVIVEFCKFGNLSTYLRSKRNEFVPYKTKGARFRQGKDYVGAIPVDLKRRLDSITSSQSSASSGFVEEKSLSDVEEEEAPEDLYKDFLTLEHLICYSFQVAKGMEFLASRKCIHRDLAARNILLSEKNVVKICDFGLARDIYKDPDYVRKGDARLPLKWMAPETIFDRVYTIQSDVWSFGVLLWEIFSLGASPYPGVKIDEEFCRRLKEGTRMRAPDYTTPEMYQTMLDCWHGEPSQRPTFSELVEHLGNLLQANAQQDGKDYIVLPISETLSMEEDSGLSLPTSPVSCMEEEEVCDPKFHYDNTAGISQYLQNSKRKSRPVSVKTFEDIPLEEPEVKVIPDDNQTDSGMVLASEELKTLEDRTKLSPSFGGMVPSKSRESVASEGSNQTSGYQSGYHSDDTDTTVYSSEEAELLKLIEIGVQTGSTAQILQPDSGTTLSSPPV"}, "source": "paper PMC7252619", "about": "(PLoS ONE, 2020)", "key": {"[1]": {"target": "VEGFR2 (Homo sapiens, UniProt P35968)", "assay": "Kinase activity test (ReactionBiology), % enzyme activity relative to DMSO;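 further: VEGFR2 was one member of a ten-kinase screening panel testing marketed FDA-approved drugs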"}, "[2]": {"test_system": "human PBMCs (responder cells) with RPMI1788 stimulator cells", "assay": "Mixed Lymphocyte Reaction (MLR, T cell assay), 3H-thymidine incorporation", "assay_type": "cell-based", "conditions": "ratio of IC50 values"}, "[3]": {"conditions": "read-out: % Enzyme Activity (relative to DMSO controls), Average"}, "[4]": {"conditions": "read-out: % Enzyme Activity (relative to DMSO controls), Data 1"}, "[5]": {"conditions": "read-out: % Enzyme Activity (relative to DMSO controls), Data 2"}}, "note": "Read-outs that look alike come from different tables or passages of the source.", "data": [{"smiles": "Oc1c(Cl)cc(Cl)c(Cl)c1Cc1c(O)c(Cl)cc(Cl)c1Cl", "note": "[Hexachlorophene, reference compound]", "values": [{"measurement": "remaining activity at 1 µM", "setting": "[1]; [3]", "value": 109, "unit": "%"}, {"measurement": "remaining activity at 10 µM", "setting": "[1]; [3]", "value": 5.14, "unit": "%"}, {"measurement": "remaining activity at 1 µM", "setting": "[1]; [4]", "value": 110, "unit": "%"}, {"measurement": "remaining activity at 10 µM", "setting": "[1]; [4]", "value": 5.15, "unit": "%"}, {"measurement": "remaining activity at 1 µM", "setting": "[1]; [5]", "value": 109, "unit": "%"}, {"measurement": "remaining activity at 10 µM", "setting": "[1]; [5]", "value": 5.13, "unit": "%"}, {"measurement": "remaining activity at 1 µM", "setting": "[1]; read-out: % Enzyme activity at 1μM", "value": 110, "unit": "%"}, {"measurement": "remaining activity at 10 µM", "setting": "[1]; read-out: % Enzyme activity at 10μM", "value": 5.14, "unit": "%"}, {"measurement": "Selectivity Index (SI) MLR/B-cell", "setting": "[2]", "value": 0.27}]}]}
